Values of other authors, collected in US20190072541A1, “BIOMARKERS FOR TREATMENT OF ALOPECIA AREATA” (THE TRUSTEES OF COLUMBIA UNIVERSITY IN THE CITY OF NEW YORK, priority 2015, published 2019).

System: JAK1, JAK2, JAK3, Tyk2
Conditions: rank order of kinases; cited from earlier work

Structure (SMILES): C[C@@H]1CCN(C(=O)CC#N)C[C@@H]1N(C)c1ncnc2[nH]ccc12 [tofacitinib]
- JAK selectivity: JAK3>JAK1>>JAK2
